Chains of the proteins cited; added tags and fusions are not shown.
UniProt P27338, whole entry: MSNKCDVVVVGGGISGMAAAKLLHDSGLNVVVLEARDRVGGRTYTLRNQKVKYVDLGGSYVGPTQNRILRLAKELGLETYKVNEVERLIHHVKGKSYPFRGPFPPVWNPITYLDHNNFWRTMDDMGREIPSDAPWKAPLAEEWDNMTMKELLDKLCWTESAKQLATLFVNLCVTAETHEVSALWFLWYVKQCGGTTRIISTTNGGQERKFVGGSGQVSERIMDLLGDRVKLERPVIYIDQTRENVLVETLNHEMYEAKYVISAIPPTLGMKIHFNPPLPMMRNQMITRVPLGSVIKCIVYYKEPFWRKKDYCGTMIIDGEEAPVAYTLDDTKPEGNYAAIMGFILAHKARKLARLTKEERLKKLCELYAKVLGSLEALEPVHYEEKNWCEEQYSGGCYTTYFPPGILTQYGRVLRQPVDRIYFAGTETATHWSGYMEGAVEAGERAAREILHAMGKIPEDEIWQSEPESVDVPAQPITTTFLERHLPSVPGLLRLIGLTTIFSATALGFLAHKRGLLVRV

In article PMC7470127, “Design, synthesis, and evaluation of 1, 4-benzodioxan-substituted chalcones as selective and reversible inhibitors of human monoamine oxidase B” (Journal of Enzyme Inhibition and Medicinal Chemistry, 2020):

Molecular target: hMAO-B (Homo sapiens, UniProt P27338)
Experiment: hMAO inhibition assay (Amplex Red fluorescence), hMAO-B, benzylamine substrate

SMILES | Selectivity Index (SI) | inhibition at 10 µM (read-out: hMAO-B Inhibition (%))
O=C(/C=C/c1ccc2c(c1)OCCO2)c1ccc(F)c(Br)c1 [Compound 22, (E)-1-(3-bromo-4-fluorophenyl)-3-(2,3-dihydrobenzo[b][1,4]dioxin-6-yl)prop-2-en-1-one] | >1538 | –
O=C(C=Cc1ccccc1)c1ccccc1 [Compound 1, 1,3-diphenyl-2-propen-1-one] | >3 | 41.6%
